≈ marks a conversion by molar mass, not a printed value. Read-outs that look alike come from different tables or passages of the source.
What was measured:
[1] = test system: NDM-1 Klebsiella pneumonia BAA2473; assay: microbe, parasite or virus in culture; details: Klebsiella pneumoniae, BAA2473, 24 h
[2] = test system: NDM-1 Klebsiella pneumonia BAA2473
[3] = test system: NDM-1 Klebsiella pneumonia BAA2472; assay: microbe, parasite or virus in culture; details: Klebsiella pneumoniae, BAA2472, 24 h
NDM-1 E. coli BAA2471 = assay: microbe, parasite or virus in culture; details: Escherichia coli, BAA2471, 24 h

| Structure (SMILES) | MIC [1] [µg/mL] | effect on synergy compared with rifampicin and colistin combination ([2]; HT0120663 at 2 μg/ml added) | effect on synergy compared with rifampicin and colistin combination ([2]; HT0120663 at 4 μg/ml added) | MIC [3] [µg/mL] | MIC (NDM-1 E. coli BAA2471) [µg/mL] |
| --- | --- | --- | --- | --- | --- |
| Cc1cn([C@H]2C[C@H](N=[N+]=[N-])[C@@H](CO)O2)c(=O)[nH]c1=O [HT0120663, Zidovudine] | 8 (≈ 29.9 µM) | increased the effect of synergy by reduction of rifampicin MIC | increased the effect of synergy by reduction of rifampicin MIC | 8 (≈ 29.9 µM) | 8 (≈ 29.9 µM) |
| CO[C@H]1/C=C/O[C@@]2(C)Oc3c(C)c(O)c4c(O)c(c(/C=N/N5CCN(C)CC5)c(O)c4c3C2=O)NC(=O)/C(C)=C\C=C\[C@H](C)[C@H](O)[C@@H](C)[C@@H](O)[C@@H](C)[C@H](OC(C)=O)[C@@H]1C [rifampicin, Rifampicin] |  |  |  | 4 (≈ 4.86 µM) | 4 (≈ 4.86 µM) |

— US10098904B2, “Zidovudine combination therapies for treating microbial infections” (HELPERBY THERAPEUTICS LIMITED, priority 2014, dated 2018)
